Source: ChEMBL document CHEMBL1909046, “DrugMatrix in vitro pharmacology data”

Protein sequences, listed by entry. Tags and fused reporters are not part of them. Lines headed by an entry give the natural chain unless they say otherwise; changes in a name come on top. Residues count along the entry.
UniProt P41143, whole entry, looked up: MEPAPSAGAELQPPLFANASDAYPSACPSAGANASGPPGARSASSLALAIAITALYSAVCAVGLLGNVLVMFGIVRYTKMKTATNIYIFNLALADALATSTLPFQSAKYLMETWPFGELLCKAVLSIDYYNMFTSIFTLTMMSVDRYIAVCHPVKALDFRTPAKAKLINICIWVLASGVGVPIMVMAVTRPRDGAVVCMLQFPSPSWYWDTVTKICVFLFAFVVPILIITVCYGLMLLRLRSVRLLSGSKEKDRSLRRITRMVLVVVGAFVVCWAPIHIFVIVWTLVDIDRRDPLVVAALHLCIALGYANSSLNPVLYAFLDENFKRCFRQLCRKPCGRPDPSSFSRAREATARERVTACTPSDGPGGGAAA
UniProt P18825, whole entry, looked up: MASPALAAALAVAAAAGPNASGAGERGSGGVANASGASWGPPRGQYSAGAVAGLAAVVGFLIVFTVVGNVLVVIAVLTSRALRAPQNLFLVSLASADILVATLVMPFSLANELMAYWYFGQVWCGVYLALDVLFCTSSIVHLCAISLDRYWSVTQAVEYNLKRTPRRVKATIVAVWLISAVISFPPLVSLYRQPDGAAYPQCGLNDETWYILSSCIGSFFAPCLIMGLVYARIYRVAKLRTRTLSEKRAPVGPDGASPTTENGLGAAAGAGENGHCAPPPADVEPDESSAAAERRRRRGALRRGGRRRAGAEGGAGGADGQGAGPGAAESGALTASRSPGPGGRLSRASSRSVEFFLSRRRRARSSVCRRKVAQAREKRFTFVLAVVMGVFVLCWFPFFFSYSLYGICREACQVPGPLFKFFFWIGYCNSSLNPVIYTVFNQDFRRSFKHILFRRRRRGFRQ
UniProt P28564, whole entry, looked up: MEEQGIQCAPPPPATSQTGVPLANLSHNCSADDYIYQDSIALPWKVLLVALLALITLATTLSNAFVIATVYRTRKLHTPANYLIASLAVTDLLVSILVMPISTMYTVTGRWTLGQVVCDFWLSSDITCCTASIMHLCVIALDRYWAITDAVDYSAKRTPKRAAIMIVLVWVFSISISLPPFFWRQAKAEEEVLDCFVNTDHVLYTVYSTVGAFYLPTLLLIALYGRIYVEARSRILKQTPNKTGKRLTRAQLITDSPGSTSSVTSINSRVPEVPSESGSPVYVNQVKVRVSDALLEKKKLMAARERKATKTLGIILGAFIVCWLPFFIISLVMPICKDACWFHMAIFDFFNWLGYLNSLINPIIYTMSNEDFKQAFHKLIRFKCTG
UniProt Q99720, whole entry, looked up: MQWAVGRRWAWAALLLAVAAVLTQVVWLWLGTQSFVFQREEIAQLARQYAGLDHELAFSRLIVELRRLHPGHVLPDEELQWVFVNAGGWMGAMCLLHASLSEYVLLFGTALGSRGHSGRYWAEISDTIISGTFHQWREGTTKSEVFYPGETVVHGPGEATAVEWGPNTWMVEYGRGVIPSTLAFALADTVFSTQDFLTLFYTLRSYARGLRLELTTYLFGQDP
UniProt P28482, 2-360 limits assumed: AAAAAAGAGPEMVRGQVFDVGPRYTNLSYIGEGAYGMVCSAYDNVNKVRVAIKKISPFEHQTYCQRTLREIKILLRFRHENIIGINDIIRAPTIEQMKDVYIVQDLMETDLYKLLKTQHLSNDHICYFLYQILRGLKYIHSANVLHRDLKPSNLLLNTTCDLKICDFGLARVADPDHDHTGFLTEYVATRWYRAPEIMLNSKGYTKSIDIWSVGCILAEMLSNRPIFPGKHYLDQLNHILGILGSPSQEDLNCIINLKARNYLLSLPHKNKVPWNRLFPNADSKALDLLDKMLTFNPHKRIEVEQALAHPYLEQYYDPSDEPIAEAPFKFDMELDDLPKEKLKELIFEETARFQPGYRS
UniProt P21728, whole entry, looked up: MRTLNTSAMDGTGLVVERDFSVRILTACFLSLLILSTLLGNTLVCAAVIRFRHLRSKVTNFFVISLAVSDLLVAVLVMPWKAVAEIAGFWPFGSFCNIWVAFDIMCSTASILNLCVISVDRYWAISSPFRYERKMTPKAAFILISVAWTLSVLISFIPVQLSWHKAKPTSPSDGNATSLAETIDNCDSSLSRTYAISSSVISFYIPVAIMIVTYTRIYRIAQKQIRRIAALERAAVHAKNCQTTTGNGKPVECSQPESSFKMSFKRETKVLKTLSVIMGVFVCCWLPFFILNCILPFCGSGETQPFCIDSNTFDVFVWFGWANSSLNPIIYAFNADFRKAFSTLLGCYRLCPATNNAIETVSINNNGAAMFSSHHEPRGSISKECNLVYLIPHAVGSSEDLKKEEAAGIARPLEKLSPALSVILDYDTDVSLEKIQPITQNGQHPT
UniProt P43140: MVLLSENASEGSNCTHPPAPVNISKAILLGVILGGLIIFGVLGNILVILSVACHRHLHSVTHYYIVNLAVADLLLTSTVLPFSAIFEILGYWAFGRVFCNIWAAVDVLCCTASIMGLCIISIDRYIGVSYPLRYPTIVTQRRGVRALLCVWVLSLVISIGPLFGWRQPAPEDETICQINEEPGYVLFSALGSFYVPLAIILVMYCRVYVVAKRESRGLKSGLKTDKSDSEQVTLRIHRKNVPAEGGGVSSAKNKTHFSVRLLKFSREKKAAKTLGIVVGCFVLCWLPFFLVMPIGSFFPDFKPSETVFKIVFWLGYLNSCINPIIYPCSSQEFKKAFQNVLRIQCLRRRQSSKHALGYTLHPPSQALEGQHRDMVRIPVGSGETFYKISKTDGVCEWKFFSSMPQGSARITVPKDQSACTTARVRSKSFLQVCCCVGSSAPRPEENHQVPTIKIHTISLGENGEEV
UniProt Q9Y271: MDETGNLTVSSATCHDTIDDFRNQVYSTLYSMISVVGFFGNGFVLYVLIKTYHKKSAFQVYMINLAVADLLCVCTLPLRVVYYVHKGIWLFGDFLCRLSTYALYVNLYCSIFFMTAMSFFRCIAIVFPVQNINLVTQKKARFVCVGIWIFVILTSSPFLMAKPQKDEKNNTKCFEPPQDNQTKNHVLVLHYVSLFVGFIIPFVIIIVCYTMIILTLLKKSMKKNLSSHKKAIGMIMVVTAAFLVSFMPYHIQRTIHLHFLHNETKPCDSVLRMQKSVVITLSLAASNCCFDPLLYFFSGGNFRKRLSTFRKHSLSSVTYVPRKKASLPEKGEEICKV
UniProt P08311, 21-244 limits assumed: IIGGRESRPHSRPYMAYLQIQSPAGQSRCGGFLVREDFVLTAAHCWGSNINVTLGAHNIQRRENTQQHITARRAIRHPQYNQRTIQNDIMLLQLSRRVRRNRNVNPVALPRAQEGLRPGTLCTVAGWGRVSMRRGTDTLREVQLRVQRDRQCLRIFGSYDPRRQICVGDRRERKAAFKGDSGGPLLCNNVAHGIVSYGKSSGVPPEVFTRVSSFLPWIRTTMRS
UniProt P13945: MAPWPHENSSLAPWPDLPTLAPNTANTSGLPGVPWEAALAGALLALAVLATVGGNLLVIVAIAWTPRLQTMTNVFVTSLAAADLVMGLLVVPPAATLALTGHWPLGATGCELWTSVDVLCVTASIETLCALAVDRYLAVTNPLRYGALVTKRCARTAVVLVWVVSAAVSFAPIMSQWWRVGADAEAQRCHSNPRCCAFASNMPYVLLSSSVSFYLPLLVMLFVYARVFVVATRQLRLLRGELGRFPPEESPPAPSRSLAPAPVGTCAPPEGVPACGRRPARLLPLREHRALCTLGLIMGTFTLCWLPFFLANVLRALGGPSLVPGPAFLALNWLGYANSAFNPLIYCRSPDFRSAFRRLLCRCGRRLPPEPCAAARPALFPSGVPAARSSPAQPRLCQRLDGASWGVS
UniProt P08575, 26-1306 limits assumed: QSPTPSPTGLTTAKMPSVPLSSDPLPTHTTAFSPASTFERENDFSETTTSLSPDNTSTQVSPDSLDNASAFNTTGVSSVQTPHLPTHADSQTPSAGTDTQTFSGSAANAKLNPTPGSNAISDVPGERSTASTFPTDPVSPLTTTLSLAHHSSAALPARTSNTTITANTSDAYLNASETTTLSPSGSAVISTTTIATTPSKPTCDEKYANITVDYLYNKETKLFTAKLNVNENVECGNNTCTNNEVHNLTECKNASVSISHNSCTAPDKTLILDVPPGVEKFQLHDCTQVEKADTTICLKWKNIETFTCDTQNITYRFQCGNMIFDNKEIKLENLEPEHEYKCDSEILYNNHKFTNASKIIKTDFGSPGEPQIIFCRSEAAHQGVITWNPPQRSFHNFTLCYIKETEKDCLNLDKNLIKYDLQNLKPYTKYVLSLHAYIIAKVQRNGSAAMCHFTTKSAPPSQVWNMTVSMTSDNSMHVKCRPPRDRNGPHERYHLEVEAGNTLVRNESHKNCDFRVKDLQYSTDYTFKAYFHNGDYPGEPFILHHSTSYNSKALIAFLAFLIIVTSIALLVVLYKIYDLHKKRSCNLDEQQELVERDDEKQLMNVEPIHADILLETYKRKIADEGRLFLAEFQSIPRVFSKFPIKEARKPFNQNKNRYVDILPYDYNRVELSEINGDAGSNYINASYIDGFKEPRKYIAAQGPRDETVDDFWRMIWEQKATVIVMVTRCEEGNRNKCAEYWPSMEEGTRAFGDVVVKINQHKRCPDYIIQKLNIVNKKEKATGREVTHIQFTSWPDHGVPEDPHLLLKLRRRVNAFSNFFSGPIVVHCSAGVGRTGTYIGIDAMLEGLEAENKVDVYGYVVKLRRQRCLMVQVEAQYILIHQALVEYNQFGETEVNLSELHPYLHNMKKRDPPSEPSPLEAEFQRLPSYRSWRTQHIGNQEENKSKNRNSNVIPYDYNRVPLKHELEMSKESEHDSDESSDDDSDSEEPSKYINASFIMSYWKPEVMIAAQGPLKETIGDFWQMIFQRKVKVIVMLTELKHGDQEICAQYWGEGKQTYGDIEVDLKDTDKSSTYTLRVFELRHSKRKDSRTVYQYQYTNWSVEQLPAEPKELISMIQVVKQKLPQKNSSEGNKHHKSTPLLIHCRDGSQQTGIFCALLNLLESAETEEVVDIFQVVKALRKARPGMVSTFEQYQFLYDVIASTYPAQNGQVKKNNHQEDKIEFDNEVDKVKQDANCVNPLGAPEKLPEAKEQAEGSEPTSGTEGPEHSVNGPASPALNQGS
UniProt P15207, whole entry S389L: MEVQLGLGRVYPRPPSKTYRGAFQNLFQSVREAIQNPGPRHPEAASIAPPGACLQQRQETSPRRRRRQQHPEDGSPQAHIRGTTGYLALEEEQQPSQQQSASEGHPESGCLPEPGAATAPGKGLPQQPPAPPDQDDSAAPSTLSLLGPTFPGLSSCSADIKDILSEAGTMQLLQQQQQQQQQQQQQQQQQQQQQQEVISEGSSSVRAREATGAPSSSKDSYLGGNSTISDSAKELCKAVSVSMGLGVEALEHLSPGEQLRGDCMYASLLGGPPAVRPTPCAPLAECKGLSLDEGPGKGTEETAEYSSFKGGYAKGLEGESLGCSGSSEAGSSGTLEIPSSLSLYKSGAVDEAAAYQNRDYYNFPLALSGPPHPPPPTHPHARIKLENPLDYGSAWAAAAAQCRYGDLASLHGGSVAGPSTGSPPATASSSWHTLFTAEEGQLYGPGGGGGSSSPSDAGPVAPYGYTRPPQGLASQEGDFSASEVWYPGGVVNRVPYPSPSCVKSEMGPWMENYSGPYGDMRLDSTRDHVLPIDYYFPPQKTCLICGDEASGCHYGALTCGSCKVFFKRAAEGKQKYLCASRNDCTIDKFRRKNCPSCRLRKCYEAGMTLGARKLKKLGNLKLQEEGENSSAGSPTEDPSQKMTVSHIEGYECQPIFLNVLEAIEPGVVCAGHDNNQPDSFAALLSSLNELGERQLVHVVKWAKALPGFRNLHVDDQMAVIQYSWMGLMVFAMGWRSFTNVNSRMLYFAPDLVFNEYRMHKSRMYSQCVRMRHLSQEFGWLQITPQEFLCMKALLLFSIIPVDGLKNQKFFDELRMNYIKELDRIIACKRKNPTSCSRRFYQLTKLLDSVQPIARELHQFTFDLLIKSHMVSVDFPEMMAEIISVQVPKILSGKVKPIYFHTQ

Legend:
[1] = target: cGMP-specific 3',5'-cyclic phosphodiesterase (Homo sapiens, UniProt O76074); test: DRUGMATRIX: Phosphodiesterase PDE5 enzyme inhibition (substrate: [3H]cGMP + cGMP); conditions: platelet
Carbonic anhydrase 2 = Carbonic anhydrase 2 (Homo sapiens, UniProt P00918); test: DRUGMATRIX: Carbonic Anhydrase II enzyme inhibition (substrate: 4-Nitrophenyl acetate (4-NPA)); conditions: erythrocyte
[2] = target: Delta-type opioid receptor (Homo sapiens, UniProt P41143); test: DRUGMATRIX: Opiate delta1 (OP1, DOP) radioligand binding (ligand: [3H] Naltrindole); conditions: hek293; further: in other assays of this panel Not Active means under 50% inhibition at 10 µM
[3] = target: Alpha-2C adrenergic receptor (Homo sapiens, UniProt P18825); conditions: sf9; on IC50: call rule not given here
[4] = target: 5-hydroxytryptamine receptor 1B (Rattus norvegicus, UniProt P28564); conditions: strain Wistar, Cerebral cortex; further: in other assays of this panel Not Active means under 50% inhibition at 10 µM
[5] = target: Sodium-dependent noradrenaline transporter (Homo sapiens, UniProt P23975); conditions: mdck
[6] = target: Angiotensin-converting enzyme (Oryctolagus cuniculus, UniProt P12822); test: DRUGMATRIX: Peptidase, Angiotensin Converting Enzyme enzyme inhibition (substrate: FAPGG); conditions: Lung;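 further: enzymatic inhibition of angiotensin-converting enzyme measured with FAPGG as the substrate; in other assays of this panel Not Active means under 50% inhibition at 10 µM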
[7] = target: Sigma non-opioid intracellular receptor 1 (Homo sapiens, UniProt Q99720); conditions: jurkat
[8] = target: Nitric oxide synthase, inducible (Mus musculus, UniProt P29477); test: DRUGMATRIX: Nitric Oxide Synthase, Inducible (iNOS) enzyme inhibition (substrate: L-Arginine);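 further: inhibition of iNOS enzyme activity measured with L-arginine as substrate; in other assays of this panel Not Active means under 50% inhibition at 10 µM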
Vasopressin V1a receptor = Vasopressin V1a receptor (Homo sapiens, UniProt P37288); conditions: hek293; further: in other assays of this panel Not Active means under 50% inhibition at 10 µM
[9] = target: Mitogen-activated protein kinase 1 (Homo sapiens, UniProt P28482); test: DRUGMATRIX: Protein Serine/Threonine Kinase, ERK2 enzyme inhibition (substrate: Myelin Basic Protein)
Neutrophil elastase = Neutrophil elastase (Homo sapiens, UniProt P08246); test: DRUGMATRIX: Peptidase, ELA2 (Neutrophil Elastase 2) enzyme inhibition (substrate: N-MeOSuc-Ala-Ala-Pro-Val-pNA)
[10] = target: Sodium-dependent dopamine transporter (Homo sapiens, UniProt Q01959); conditions: cho-k1
D(1A) dopamine receptor = D(1A) dopamine receptor (Homo sapiens, UniProt P21728); test: DRUGMATRIX: Dopamine D1 radioligand binding (ligand: [3H] SCH-23390); conditions: cho
[11] = target: Alpha-1A adrenergic receptor (Rattus norvegicus, UniProt P43140); conditions: strain Wistar, Submaxillary gland
[12] = target: Vascular endothelial growth factor receptor 1 (Homo sapiens, UniProt P17948); conditions: huvec; further: in other assays of this panel Not Active means under 50% inhibition at 10 µM
[13] = target: Protein kinase C alpha type (Homo sapiens, UniProt P17252); test: DRUGMATRIX: Protein Serine/Threonine Kinase PKCalpha enzyme inhibition (substrate: Histone); conditions: sf9
[14] = target: Beta-1 adrenergic receptor (Homo sapiens, UniProt P08588); conditions: cho-k1
[15] = target: Platelet-activating factor receptor (Homo sapiens, UniProt P25105); test: DRUGMATRIX: Platelet Activating Factor (PAF) radioligand binding (ligand: [3H] PAF); further: in other assays of this panel Not Active means under 50% inhibition at 10 µM
[16] = target: Alpha-1B adrenergic receptor (Rattus norvegicus, UniProt P15823); conditions: strain Wistar, Liver
[17] = target: Cysteinyl leukotriene receptor 1 (Homo sapiens, UniProt Q9Y271); test: DRUGMATRIX: Cysteinyl leukotriene receptor 1 radioligand binding (ligand: [3H]LTD4); conditions: cho-k1; further: in other assays of this panel Not Active means under 50% inhibition at 10 µM
[18] = target: Kappa-type opioid receptor (Homo sapiens, UniProt P41145); test: DRUGMATRIX: Opiate kappa (OP2, KOP) radioligand binding (ligand: [3H] Diprenorphine); conditions: hek293
Nitric oxide synthase 1 = Nitric oxide synthase 1 (Rattus norvegicus, UniProt P29476); test: DRUGMATRIX: Nitric Oxide Synthase, Neuronal (nNOS) radioligand binding (ligand: [3H]L-Arginine); conditions: Cerebellum; further: in other assays of this panel Not Active means under 50% inhibition at 10 µM
[19] = target: 5-hydroxytryptamine receptor 6 (Homo sapiens, UniProt P50406); test: DRUGMATRIX: Serotonin (5-Hydroxytryptamine) 5-HT6 radioligand binding (ligand: [3H] Lysergic acid diethylamide); conditions: hela; further: in other assays of this panel Not Active means under 50% inhibition at 10 µM
D(3) dopamine receptor = D(3) dopamine receptor (Homo sapiens, UniProt P35462); test: DRUGMATRIX: Dopamine D3 radioligand binding (ligand: [3H] Spiperone); conditions: cho
Mu-type opioid receptor = Mu-type opioid receptor (Homo sapiens, UniProt P35372); test: DRUGMATRIX: Opiate mu (OP3, MOP) radioligand binding (ligand: [3H] Diprenorphine); conditions: cho-k1
Cathepsin G = Cathepsin G (Homo sapiens, UniProt P08311); test: DRUGMATRIX: Protease, Cathepsin G enzyme inhibition (substrate: Suc-Ala-Ala-Pro-Phe-AMC); conditions: neutrophil
[20] = target: Beta-3 adrenergic receptor (Homo sapiens, UniProt P13945); conditions: hek293
[21] = target: Receptor-type tyrosine-protein phosphatase C (Homo sapiens, UniProt P08575); test: DRUGMATRIX: Protein Tyrosine Phosphatase, PTPRC (CD45) enzyme inhibition (substrate: DiFMUP)
[22] = target: Tyrosine-protein kinase Lck (Homo sapiens, UniProt P06239); test: DRUGMATRIX: Protein Tyrosine Kinase, LCK enzyme inhibition (substrate: Poly(Glu:Tyr)); conditions: insect cells
Androgen receptor = Androgen receptor (Rattus norvegicus, UniProt P15207); further: in other assays of this panel Not Active means under 50% inhibition at 10 µM
[23] = target: Amine oxidase [flavin-containing] A (Homo sapiens, UniProt P21397); test: DRUGMATRIX: Monoamine Oxidase MAO-A enzyme inhibition (substrate: Kynuramine); conditions: bti-tn-5b1-4

CN(C(=O)Cc1ccc(Cl)c(Cl)c1)C1CCC2(CCCO2)CC1N1CCCC1 (centres undefined)
0.234 µM: IC50 (Mu-type opioid receptor)
0.095 µM: Ki (Mu-type opioid receptor)
0.0083 µM: IC50 [18]
0.00332 µM: Ki [18]
Not Active: IC50 [1] | Ki [1] | IC50 (Carbonic anhydrase 2) | Ki (Carbonic anhydrase 2) | IC50 [2] | Ki [2] | IC50 [3] | Ki [3] | IC50 [4] | Ki [4] | IC50 [5] | Ki [5] | IC50 [6] | Ki [6] | IC50 [7] | Ki [7] | IC50 [8] | Ki [8] | IC50 (Vasopressin V1a receptor) | Ki (Vasopressin V1a receptor) | IC50 [9] | Ki [9] | IC50 (Neutrophil elastase) | Ki (Neutrophil elastase) | IC50 [10] | Ki [10] | IC50 (D(1A) dopamine receptor) | Ki (D(1A) dopamine receptor) | IC50 [11] | Ki [11] | IC50 [12] | Ki [12] | IC50 [13] | Ki [13] | IC50 [14] | Ki [14] | IC50 [15] | Ki [15] | IC50 [16] | Ki [16] | IC50 [17] | Ki [17] | IC50 (Nitric oxide synthase 1) | Ki (Nitric oxide synthase 1) | IC50 [19] | Ki [19] | IC50 (D(3) dopamine receptor) | Ki (D(3) dopamine receptor) | IC50 (Cathepsin G) | Ki (Cathepsin G) | IC50 [20] | Ki [20] | IC50 [21] | Ki [21] | IC50 [22] | Ki [22] | IC50 (Androgen receptor) | Ki (Androgen receptor) | IC50 [23] | Ki [23]
